Test results published in US9540330B2, “Oligomer-containing hydantoin compounds” (Nektar Therapeutics, priority 2010, dated 2017).

The chains behind the UniProt entries cited, without tags or fusion partners. Where a name states a change or a piece, a line headed by the entry shows the natural chain unless it says otherwise.
UniProt Q12809: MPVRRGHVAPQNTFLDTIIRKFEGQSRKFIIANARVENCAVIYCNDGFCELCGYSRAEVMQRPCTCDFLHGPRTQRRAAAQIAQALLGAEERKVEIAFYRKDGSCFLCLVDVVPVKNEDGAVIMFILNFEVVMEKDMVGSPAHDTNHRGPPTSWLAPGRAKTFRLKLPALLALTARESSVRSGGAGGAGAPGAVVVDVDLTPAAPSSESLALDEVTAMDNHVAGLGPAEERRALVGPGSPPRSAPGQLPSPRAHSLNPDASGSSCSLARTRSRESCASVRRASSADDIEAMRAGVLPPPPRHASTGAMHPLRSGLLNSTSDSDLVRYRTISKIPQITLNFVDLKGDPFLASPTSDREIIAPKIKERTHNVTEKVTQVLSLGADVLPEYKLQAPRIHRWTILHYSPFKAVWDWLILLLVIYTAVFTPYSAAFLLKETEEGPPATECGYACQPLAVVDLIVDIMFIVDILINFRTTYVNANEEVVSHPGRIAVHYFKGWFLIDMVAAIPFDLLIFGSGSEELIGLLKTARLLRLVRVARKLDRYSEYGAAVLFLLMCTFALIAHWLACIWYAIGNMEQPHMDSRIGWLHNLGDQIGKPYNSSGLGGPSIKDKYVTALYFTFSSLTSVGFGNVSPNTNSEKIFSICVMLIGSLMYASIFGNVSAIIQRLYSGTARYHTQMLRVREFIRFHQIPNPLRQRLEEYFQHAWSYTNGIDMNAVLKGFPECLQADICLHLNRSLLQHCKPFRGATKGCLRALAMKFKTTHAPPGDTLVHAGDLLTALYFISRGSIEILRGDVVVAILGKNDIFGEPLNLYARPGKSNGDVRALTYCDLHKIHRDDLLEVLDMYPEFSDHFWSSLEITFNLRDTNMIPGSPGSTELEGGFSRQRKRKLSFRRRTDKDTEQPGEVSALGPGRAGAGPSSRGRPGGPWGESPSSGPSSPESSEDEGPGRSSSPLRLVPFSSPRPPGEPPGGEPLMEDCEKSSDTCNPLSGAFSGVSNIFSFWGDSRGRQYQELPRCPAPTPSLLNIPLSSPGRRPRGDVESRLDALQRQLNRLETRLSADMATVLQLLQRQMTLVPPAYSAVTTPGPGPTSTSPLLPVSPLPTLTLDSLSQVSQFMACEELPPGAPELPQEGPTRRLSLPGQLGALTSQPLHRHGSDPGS

Biological target: T1, cloned human hERG channel (Homo sapiens, UniProt Q12809)
T1 construct: expressed in transfected cells; host or cells: HEK cells
Experiment: hERG current block in HEK cells, whole-cell patch clamp
Format: cell-based
Conditions: HEK cells expressing cloned human hERG channel, 37±1° C., peak current at −40 mV; read-out: hERG (μM), IC50 for inhibition of hERG
Procedure: Electrophysiological measurements of hERG current were made in vitro to assess the hERG block produced by the phenyloin conjugates. hERG currents were measured in HEK cells expressing the cloned human hERG channel using the whole-cell variant of the patch clamp method. Experiments were performed at 37±1° C. hERG current was elicited by a step pulse to +10 mV for 500 ms from a holding potential of −75 mV, followed by a pulse to −40 mV for 500 ms. Peak current was measured from the pulse to −40 mV. Six concentrations of each test compound were added to the cell in a cumulative manner starting with the lowest test concentration. Each cell served as its own control and data are presented as % reduction of current amplitude achieved in the presence of drug.

`O=C1NC(=O)C(c2ccccc2)(c2ccccc2)N1` [Phenytoin, 5,5-diphenylhydantoin, reference compound] gave an IC50 of 96.4 µM.
